Usually IC50 stands for the concentration at which inhibition is half-maximal.

By UniProt entry, the sequences of proteins in these tests, tags left out.
UniProt O75874, whole entry R132H: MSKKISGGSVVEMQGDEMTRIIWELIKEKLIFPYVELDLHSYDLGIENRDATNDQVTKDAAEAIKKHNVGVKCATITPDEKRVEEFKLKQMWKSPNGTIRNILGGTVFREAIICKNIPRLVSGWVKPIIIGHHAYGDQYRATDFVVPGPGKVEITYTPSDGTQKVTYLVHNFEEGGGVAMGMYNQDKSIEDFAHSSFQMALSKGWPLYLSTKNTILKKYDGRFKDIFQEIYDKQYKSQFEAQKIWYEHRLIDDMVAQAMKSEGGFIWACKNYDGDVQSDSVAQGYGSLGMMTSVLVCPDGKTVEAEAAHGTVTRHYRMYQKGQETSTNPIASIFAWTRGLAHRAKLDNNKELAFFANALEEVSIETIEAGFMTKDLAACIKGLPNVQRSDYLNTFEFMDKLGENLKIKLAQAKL

This assay addresses R132H mutant IDH1 enzyme (Homo sapiens (Human), UniProt O75874, R132H). The assay can be described thus: R132H IDH1 Enzymatic Assay. It counts as biochemical. The settings on record: R132H mutant IDH1 enzyme 1.5 nM final; luminescence readout; read-out: IC50.

As for `COC1CCCC(C(=O)N2Cc3cccnc3Nc3ccc(N4CCOCC4)cc32)CC1` (stereo not shown) [Example 165, 6-[(4-methoxycycloheptyl)car-bonyl]-8-morpholin-4-yl-6,11-dihydro-5H-pyrido[2,3-b][1,5]benzodiazepine], the IC50 was 954 nM. `CC(C)O[C@H]1CC[C@H](C(=O)N2Cc3cccnc3Nc3ccc(C4(O)CCOCC4)cc32)CC1` [Example 523, [8-(4-Hydroxytetrahydro-2H-pyran-4-yl)-5,11-dihydro-6H-pyrido[2,3-b][1,5]benzodiazepin-6-yl][trans-4-(propan-2-yloxy)cyclohexyl]methanone]: the IC50 amounted to 68 nM. To `COc1cnccc1-c1ccc2c(c1)N(C(=O)[C@H]1CC[C@H](OC)CC1)Cc1cccnc1N2` [Example 179, 6-[(trans-4-methoxycyclohexyl)carbonyl]-8-(3-methoxypyridin-4-yl)-6,11-dihydro-5H-pyrido[2,3-b][1,5]benzodiazepine] belongs 41 nM; to `COC1CCC(C(=O)N2Cc3cccnc3Nc3ccc(CCC(=O)N4CCOCC4)cc32)CC1` (stereo not shown) [Example 427, 6-[(4-methoxycyclohexyl)carbonyl]-8-(3-morpholin-4-yl-3-oxopropyl)-6,11-dihydro-5H-pyrido[2,3-b][1,5]benzodiazepine], 599 nM; to `C[C@H](N(C)[C@H]1CC[C@@H](C(=O)N2Cc3cccnc3Nc3ccc(N4CCOCC4)cc32)CC1)C(F)(F)F` [Example 506, cis-N-methyl-4-[(8-morpholin-4-yl-5,11-dihydro-6H-pyrido[2,3-b][1,5]benzodiazepin-6-yl)carbonyl]-N-[(1S)-2,2,2-trifluoro-1-methylethyl]cyclohexanamine], 164 nM. To `CO[C@H]1CC[C@H](C(=O)N2Cc3cccnc3Nc3ccc(N4C[C@@H]5C[C@H]4CO5)cc32)CC1` [Example 283, 6-[(trans-4-methoxycyclohexyl)carbonyl]-8-[(1S,4S)-2-oxa-5-azabicyclo[2.2.1]hept-5-yl]-6,11-dihydro-5H-pyrido[2,3-b][1,5]benzodiazepine] belongs 285 nM; to `CC(C)O[C@H]1CC[C@H](C(=O)N2Cc3cccnc3Nc3ccc(C4OCCOC4C)cc32)OC1` (single isomer, unassigned) [Example 25], 45 nM. For `CO[C@H]1CC[C@@H](C(=O)N2Cc3cccnc3Nc3ccc(CN(C)C4COC4)cc32)CC1` [Example 486, N-({6-[(cis-4-methoxycyclohexyl)carbonyl]-6,11-dihydro-5H-pyrido[2,3-b][1,5]benzodiazepin-8-yl}-methyl)-N-methyloxetan-3-amine] the value was 418 nM; for `CO[C@H]1CC[C@H](C(=O)N2Cc3cccnc3Nc3ccc(N4CC[C@H](F)C4)cc32)CC1` [Example 264, 8-[(3S)-3-fluoropyrrolidin-1-yl]-6-[(trans-4-methoxycyclohexyl)carbonyl]-6,11-dihydro-5H-pyrido[2,3-b][1,5]benzodiazepine], 286 nM; for `CCO[C@H]1C[C@@H](C(=O)N2Cc3cccnc3Nc3ccc(N4C[C@H]5CC[C@@H]4CO5)cc32)C[C@@H]1F` [Example 158, 6-{[(1R,3S,4S)-3-ethoxy-4-fluorocyclopentyl]carbon-yl}-8-[(1R,4R)-2-oxa-5-azabicyclo[2.2.2]oct-5-yl]-6,11-dihydro-5H-pyrido[2,3-b][1,5]benzodiazepine], 24 nM. Turning to `CO[C@H]1CC[C@H](C(=O)N2Cc3cccnc3Nc3ccc(-c4cncn4C)cc32)CC1` [Example 187, 6-[(trans-4-methoxycyclohexyl)carbonyl]-8-(1-methyl-1H-imidazol-5-yl)-6,11-dihydro-5H-pyrido[2,3-b][1,5]benzodiazepine], the IC50 turned out to be 203 nM. For `O=C(C1CCC(F)(F)CC1)N1Cc2cccnc2Nc2ccc(N3CCOCC3)cc21` [Example 77, 6-[(4,4-difluorocyclohexyl)car-bonyl]-8-morpholin-4-yl-6,11-dihydro-5H-pyrido[2,3-b][1,5]benzodiazepine] the value was 676 nM; for `O=C([C@H]1CC[C@@H](OC2CC2(F)F)CC1)N1Cc2cccnc2Nc2ccc(N3CCOCC3)cc21` (stereo in doubt) [Example 105, 6-[(cis-4-{[(1S)-2,2-difluorocyclopropyl]oxy}-cyclohexyl)carbonyl]-8-morpholin-4-yl-6,11-dihydro-5H-pyrido[2,3-b][1,5]benzodiazepine], 59 nM; for `CC(C)O[C@H]1CC[C@H](C(=O)N2Cc3cccnc3Nc3ccc(C4CC(O)CO4)cc32)OC1` (stereo partly drawn) [Example 145, (8-(4-hydroxytetrahydrofuran-2-yl)-5,11-dihydro-6H-benzo[b]pyrido[2,3-e][1,4]diazepin-6-yl)((2R,5S)-5-isopropoxytetrahydro-2H-pyran-2-yl)methanone], 82 nM. Take `C[C@H](N[C@H]1CC[C@H](C(=O)N2Cc3cccnc3Nc3ccc([C@@H]4CCCOC4)cc32)CC1)C(F)(F)F` (single isomer, unassigned) [Example 461]: the IC50 amounted to 36 nM. `CO[C@@H]1CC[C@H](C(=O)N2Cc3cccnc3Nc3ccc(N4CCOCC4)cc32)C[C@@H]1C(F)(F)F` [Example 101, 6-{[(1S,3S,4R)-4-methoxy-3-(trifluoromethyl)cyclohex-yl]carbonyl}-8-morpholin-4-yl-6,11-dihydro-5H-pyrido[2,3-b][1,5]benzodiazepine]: the IC50 turned out to be 620 nM.
